Yeast mating assay B: variants of the scFv Ab-14

Source: Li et al. 2023 (doi:10.1038/s41467-023-39022-2), MIT Lincoln Laboratory and A-Alpha Bio; data file from the FLAb repository.

All variants were tested on one target, the spike HR2 peptide PDVDLGDISGINAS (SARS-CoV-2).

Ab-14 is the parent antibody, in scFv form: VH, then the linker GGGGSGGGGSGGGGS, then VL. The heavy chain is unchanged in all variants.
VH: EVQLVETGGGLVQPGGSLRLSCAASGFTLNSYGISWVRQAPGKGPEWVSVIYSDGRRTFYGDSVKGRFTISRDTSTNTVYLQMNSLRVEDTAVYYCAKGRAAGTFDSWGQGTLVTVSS
VL: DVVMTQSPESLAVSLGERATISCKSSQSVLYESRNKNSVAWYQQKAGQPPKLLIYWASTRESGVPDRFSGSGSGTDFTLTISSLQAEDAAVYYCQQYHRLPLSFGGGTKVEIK

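Phage display of a naive human antibody library on the peptide gave the parent. The variants were designed computationally from a first round of random CDR variants and then made and measured. Several design methods are mixed in this list. The assay is AlphaSeq: two haploid yeast populations carry antibody and antigen on their surface. The frequency of each diploid, read from paired DNA barcodes, reflects how well the two displayed proteins bind. Scores were corrected for input abundance and mapped to Kd with protein pairs of known affinity run in the same pool. Each pool was mated in six replicate cultures.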

Sequences are complete VL domains. Scale: log10 of Kd in nM, estimated from mating counts; low values are strong binders. Replicates are averaged; those with no signal do not enter the mean. "no signal" marks a missing value. The strain was present, yet no cells mated with the target were sequenced in any replicate, which points to weak or no binding.

VL	mean log10 Kd (nM)	seen in
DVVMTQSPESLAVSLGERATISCHMYQSGLYESRNKNSVAWYQQKAGQPPKLLIYSASQRESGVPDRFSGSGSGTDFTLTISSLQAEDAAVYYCQQYHRLPLSFGGGTKVEIK	0.93	6 of 6
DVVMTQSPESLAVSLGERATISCTVSQVHGMLSHEKNSVAWYQQKAGQPPKLLIYDMNTRGSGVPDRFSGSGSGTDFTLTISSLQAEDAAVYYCQQYDRLPLSFGGGTKVEIK	1.18	6 of 6
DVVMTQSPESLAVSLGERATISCTLYGLSMSMAKNKNNVAWYQQKAGQPPKLLIYEMTTREKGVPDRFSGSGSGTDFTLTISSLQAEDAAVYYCQQYDRLPLQFGGGTKVEIK	1.05	6 of 6
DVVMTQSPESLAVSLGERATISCKSSQSVLMEWRNKNSVAWYQQKAGQPPKLLIYWASTRESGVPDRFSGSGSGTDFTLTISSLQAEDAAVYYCQQYHRLPLSFGGGTKVEIK	2.65	4 of 6
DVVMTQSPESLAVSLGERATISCKLSQSQLYESRNKNSVAWYQQKAGQPPKLLIYNASTRESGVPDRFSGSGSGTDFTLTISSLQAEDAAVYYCQQYHRLPLEFGGGTKVEIK	-0.09	6 of 6
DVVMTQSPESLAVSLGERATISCKMMQNKVDGATRQYSIAWYQQKAGQPPKLLIYETTKVMAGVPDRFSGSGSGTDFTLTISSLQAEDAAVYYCQQYFHLPFIFGGGTKVEIK	0.97	6 of 6
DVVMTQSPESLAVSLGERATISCKQQQGQDYESRNKNSVAWYQQKAGQPPKLLIYDASLRESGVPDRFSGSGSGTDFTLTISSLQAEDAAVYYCQQYHRLPLSFGGGTKVEIK	-0.14	6 of 6
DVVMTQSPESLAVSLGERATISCDMTVQFNGASNIQNSVAWYQQKAGQPPKLLIYHGVEKIDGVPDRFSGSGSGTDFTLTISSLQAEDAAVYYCQQYVRLPLAFGGGTKVEIK	0.60	6 of 6
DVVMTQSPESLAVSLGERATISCKSSISWLYESRNENSVAWYQQKAGQPPKLLIYEASTREQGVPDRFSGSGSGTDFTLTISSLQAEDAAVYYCQQYHRLPLSFGGGTKVEIK	-0.29	6 of 6
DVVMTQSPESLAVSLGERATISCKLSQSVLYESRNKNSVAWYQQKAGQPPKLLIYGASTRESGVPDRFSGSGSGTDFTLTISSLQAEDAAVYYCQAYHRLPLSFGGGTKVEIK	0.02	6 of 6
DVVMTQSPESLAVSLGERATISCKLKQSELYESRNKNSVAWYQQKAGQPPKLLIYNASTRESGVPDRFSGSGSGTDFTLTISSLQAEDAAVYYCQQYHRLPLSFGGGTKVEIK	0.13	6 of 6
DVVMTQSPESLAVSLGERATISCKSSQSVLYESRNKNSVAWYQQKAGQPPKLLIYWAYTRESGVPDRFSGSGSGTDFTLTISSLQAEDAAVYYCQQPHRLPLSFGGGTKVEIK	no signal	0 of 6
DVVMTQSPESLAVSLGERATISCKSSQAVLYESRNKNSIAWYQQKAGQPPKLLIYNGSTRESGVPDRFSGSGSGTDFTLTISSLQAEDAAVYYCQQYHRLPLSFGGGTKVEIK	0.23	6 of 6
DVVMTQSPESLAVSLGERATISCKFHMGWEMGSRWNDNIAWYQQKAGQPPKLLIYEANLRFSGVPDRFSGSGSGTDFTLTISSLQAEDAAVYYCQQYNRLPLFFGGGTKVEIK	1.58	4 of 6

2 of these entries, quoted again:

VL	mean log10 Kd (nM)	seen in
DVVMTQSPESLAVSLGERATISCKSSISWLYESRNENSVAWYQQKAGQPPKLLIYEASTREQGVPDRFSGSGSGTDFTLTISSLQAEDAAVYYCQQYHRLPLSFGGGTKVEIK	-0.29	6 of 6
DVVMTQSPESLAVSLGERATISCTVSQVHGMLSHEKNSVAWYQQKAGQPPKLLIYDMNTRGSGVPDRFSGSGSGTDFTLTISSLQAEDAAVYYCQQYDRLPLSFGGGTKVEIK	1.18	6 of 6

As a blank, each scFv also met three strains without target: over all light chain designs, 4% of these pairings were detected, typically at 2.64 and seldom below 1.59. Of ten entries with the parent sequence, four were seen in most replicates (averages 0.34 to 2.37), three in one and three in none, so single entries are noisy. Values of this round are not directly comparable with the first-round values of the same sequences. The authors' rule: three or more of the six replicates give a measured affinity, fewer mean a poor binder.